The values that follow are results of earlier work, collected in paper PMC4646457 (2015).

For the data set the following is noted: Day 8; ref study EGF10002; cited from earlier work.

As to `CS(=O)(=O)CCNCc1ccc(-c2ccc3ncnc(Nc4ccc(OCc5cccc(F)c5)c(Cl)c4)c3c2)o1` [lapatinib], the half-life – broadly, the time needed for the level to fall by half in the phase considered – is 9 h.
